Experimental data as given in patent US20230158165A1, “TREGITOPE CONSTRUCTS USEFUL IN THE PREVENTION AND TREATMENT OF TYPE 1 DIABETES” (EPIVAX, INC., priority 2020, published 2023).

Test system: female C57BL/6 mice immunized with ovalbumin (OVA)
Assay: Response to OVA immunization after HSA-Tregitope conjugate or free-maleimide-Tregitope treatment
Format: in vivo
Conditions: splenocytes stimulated with OVA, Day 17

## HSA: recombinant human serum albumin carrier, HSA-only control group
  IFNγ production (IFNγ/IL2 and IFNγ/IL17 fluorospot assays): inhibited less
